Experimental data published in patent publication US5721207A, “Method for treatment of pain” (Innapharma, Inc., priority 1995, dated 1998).
Like-named read-outs stand apart in the source and are kept apart here.

Legend:
rat [1] = assay: Rat hot plate test, five consecutive daily intrathecal doses of elcatonin (Example 11); assay type: in vivo; details: 4.4 IU/kg intrathecal
Procedure: This study assesses the effectiveness of repeated doses of intrathecally administered elcatonin for analgesia. Intrathecal catheters were implanted in rats as described hereinabove, and a 7-10 day period thereafter allowed for full recovery from the surgical procedures.
Eighteen rats were assigned to three treatment groups of six rats per group. The study is conducted in two treatment phases at one week intervals. Treatment Group I rats receive no treatment. Group II rats receive five consecutive daily intrathecal doses of sterile physiological saline (vehicle control). Group III rats receive five consecutive daily doses of elcatonin (4.4 IU/kg body weight).
For each treatment, hot plate latencies are determined as described in Example 5 herein above at 0 minutes (predose, baseline), 1 hour, 3 hours, and 24 hours following injection on the first, third, and fifth study days.

rat [2] = assay: Rat hot plate test, 10 single daily intrathecal doses of elcatonin over 11 days (Example 12); assay type: in vivo; details: 4.4 IU/kg intrathecal, 10 daily doses
Procedure: This study assesses the effectiveness of repeated doses of 10 single consecutive daily doses of elcatonin administered via the intrathecal route in the rat during two 5 day treatment phases separated by a 48 hour nontreatment interval.
Intrathecal catheters were implanted in rats as described hereinabove, and a 7-10 day period thereafter allowed for full recovery from the surgical procedures. Nine rats were assigned to three treatment groups of three rats per group. The study is conducted in two 5 day treatment phases separated by a 48 hour nontreatment interval. Treatment Group I rats receive no treatment (sham injection). In each treatment phase, Group II rats received five consecutive daily intrathecal doses of sterile physiological saline (vehicle control), for a total of 10 injections per study treatment. In each treatment phase, Group III rats each received five consecutive daily doses of elcatonin (4.4 IU/kg body weight), for a total of 10 injections per study treatment (Table 4).
For each treatment, hot plate latencies are determined as described in Example 5 hereinabove at 0 minutes (predose, baseline), 1 hour, 3 hours, and 24 hours following injection on the 1st, 3rd, 5th, 7th, 9th and 11th study days (Table 4).

rat [3] = assay: Rat hot plate test, single intravenous elcatonin (Example 10); assay type: in vivo; details: 10-300 IU/kg
Procedure: A total of 24 rats, ranging in weight from 320 to 420 g, was used in this study. Four to eight rats were used for each dose level. Elcatonin was administered in a volume of 0.5 ml/mg body weight by tail vein injection. The doses used were 10, 30, 100 and 300 IU/kg (1.61, 4.83, 16.1 and 48.3 μg/kg, respectively).

rat [4] = assay: Rat hot plate analgesiometric test, dose response of single intrathecal elcatonin (Example 8); assay type: in vivo; details: 0.8 IU/kg intrathecal
Procedure: The doses tested were 0.2, 0.8, 1.6, 2.4, and 3.6 IU/kg. The desired dose was injected in a volume of 37.5 μL/kg, followed by a catheter wash-out with 10 μL saline, via the intrathecal route.
A total of 113 adult male rats, of weights of 350 g to 400 g, were used. Intrathecal catheters were surgically implanted as described in Example 4.
Data were analyzed for statistical significance, and a point estimate (mean and standard deviation) are used to analyze analgesic activity for each dose of the drug for a selected time period. Nonparametric statistics were calculated to address the level of significance of any difference between control and test group.

rat [5] = assay: Rat hot plate test, intrathecal elcatonin with 0.1% human serum albumin (Example 13); assay type: in vivo; details: 4.4 IU/kg intrathecal, with or without 0.1% HSA
Procedure: On each study day, a standard 25% (wt/vol) solution of HSA is diluted under aseptic conditions with physiological saline ([…] of NaCl, USP grade) to achieve the desired stock solution concentration of 0.2% (wt/vol). Where needed, an aliquot of elcatonin solution was mixed with an equal volume of 0.2% HSA to give a final concentration of 0.1% HSA in the elcatonin-containing composition for administration.
Thirty-two male rats (320-420 g) are obtained, adapted, catheterized and recovered as described hereinabove. Group I rats are injected intrathecally with elcatonin in physiological saline at a dose of 4.4 IU/kg, in a volume of 10 μl/kg. Group II rats are injected intrathecally with a dose of 4.4 IU/kg in physiological saline containing 0.1% HSA, in a volume of 10 μL/kg. Group III rats are injected with physiological saline containing 0.1% HSA, 10 μL/kg. Each dose is followed by a washout of 8 μL of physiological saline.
In each of the study groups, hot plate latencies are determined at 0 minutes (baseline, predose), 1 hour, 3 hours, 6 hours, and 24 hours following intrathecal injections on the 1st, 3rd and 5th study days.

rat [6] = system: rat

[Des-Cys^1,ASU^7 ]-Calcitonin, Eel [Elcatonin]
body weight changes, morbidity, mortality, clinical and behavioral abnormalities (rat [1]): no significant body weight changes, morbidity, mortality or clinical and behavioral abnormalities were observed
body weight changes, morbidity, mortality, clinical and behavioral abnormalities (rat [2]): no significant body weight changes, morbidity, mortality or clinical and behavioral abnormalities were observed
body weight changes, morbidity, mortality, clinical and behavioral abnormalities (rat [3]): no significant body weight changes, morbidity, mortality or clinical and behavioral abnormalities were observed
mortality (rat [4]): A fourth rat died 24 hr after the intrathecal administration
body weight changes, morbidity, mortality, clinical and behavioral abnormalities (rat [5]): no significant body weight changes, morbidity, mortality or clinical and behavioral abnormalities were observed
myoclonia (rat [6]; 3.6 and 5.2 IU/kg intrathecal): Short-Term tail (2) and hind limb (1) myoclonia occurred in two animals
clinical or behavioral abnormalities (rat [6]; 24 hour observation period following intrathecal administration): No clinical or behavioral abnormalities were noted
body weight changes (rat [6]; intrathecal): unremarkable
mortality (rat [6]; intrathecal): no mortality was observed
